## Apparent affinities of Ab-14 variants for a coronavirus HR2 peptide

Data: MIT Lincoln Laboratory AlphaSeq set, Li et al. 2023, doi:10.1038/s41467-023-39022-2, as distributed in FLAb.

Target: peptide PDVDLGDISGINAS, taken from heptad repeat 2 (HR2) of SARS-CoV-2 spike.

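The parent was found by panning a naive human phage display library on the peptide. This is the validation round: designs drawn from the data on random variants, tested in the same kind of assay. Group labels follow the data file (Ctrl: baseline library sampled from a position-specific scoring matrix, with some repeated check sequences; Rand: our label for a block that the file lists under HC and that is probably the random mutants of the ten best first-round binders; En: ensemble of fine-tuned language models; GP: Gaussian process model; GPLM: also part of the Gaussian process libraries; HC: hill climbing; Gen: genetic algorithm; Gibbs: Gibbs sampling; a sequence that several methods proposed may carry one label only). The scFvs were displayed on barcoded MATa yeast, the peptide on MATalpha yeast. Binding brings cells together so that they mate, and sequencing counts the barcode pairs among the diploids. A regression on co-assayed BCL2-family reference pairs converts the normalised counts of each replicate to an apparent Kd. There are six technical replicates.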

Each scFv is VH, three GGGGS repeats, VL, as in the parent Ab-14, and differs from it in the CDRs of the heavy chain only.
VH: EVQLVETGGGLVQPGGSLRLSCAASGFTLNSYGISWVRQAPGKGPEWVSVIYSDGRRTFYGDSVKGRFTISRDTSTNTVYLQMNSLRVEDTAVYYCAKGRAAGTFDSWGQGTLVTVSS
VL: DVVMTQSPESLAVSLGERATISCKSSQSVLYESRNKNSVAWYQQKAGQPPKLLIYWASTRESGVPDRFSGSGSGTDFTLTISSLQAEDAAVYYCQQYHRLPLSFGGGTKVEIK

Each variant is given by its three heavy chain CDRs, as the data file delimits them; those of the parent are GFTLNSYGIS, VIYSDGRRTFYGDSVK, GRAAGTFDS. Each Kd is an estimate from the mating assay, the geometric mean of the replicates in which the pair was seen; lower is stronger. "nd" marks a missing value. The strain was present, yet no cells mated with the target were sequenced in any replicate, which points to weak or no binding. The authors' rule: three or more of the six replicates give a measured affinity, fewer mean a poor binder. Of ten entries with the parent sequence, four were seen in most replicates (averages 2.2 nM to 240 nM), three in one and three in none, so single entries are noisy. A sequence measured in both rounds can read differently, since the two assays cover different ranges. Three control strains display no target. For all heavy chain designs, 1% of the pairings with them gave a signal, with a median of 120 nM and one signal in twenty below 7.0 nM, so weak values seen in few replicates may be background.

| # | CDR-H1 | CDR-H2 | CDR-H3 | group | apparent Kd | replicates with signal |
|---|---|---|---|---|---|---|
| 1 | GFDLNSYGIS | VIYSDGRRTFYSDSVK | GKTAGTFDA | GP_Gibbs | 1.0 nM | 5/6 |
| 2 | GFDLNEYGIS | VIYADGQRTAYADDVK | GEVAGTFDT | En_Gen | 410 pM | 6/6 |
| 3 | GFDLEEYGIS | VIYADGRRTAYSDSVK | GNVAGTFDV | En_Gen | 300 pM | 6/6 |
| 4 | GFDLNSYGIS | VIYSDGRRTFYGDSVK | GMTAGTFDA | GP_Gibbs | 1.0 nM | 6/6 |
| 5 | GFTLNDYGIS | VIYSDGRRTMYGDSVK | GRIAGTFDS | GP_HC | 1.7 nM | 6/6 |
| 6 | GFSLNEYGIS | VIYSDGRRTFYVDSVK | GKAAGTFDS | GPLM_Gen | 550 pM | 6/6 |
| 7 | GFNLDEYGIS | VIYADGVRRAVIDNVK | GLVRFDFDL | En_Gibbs | nd | 0/6 |
| 8 | GFDLNSYGIS | VIYSDGRRTAYGPNVK | GNAAGTFDS | Ctrl | 1.6 nM | 6/6 |
| 9 | GFDLNEYGIS | VIYADGVRKAYSDSVK | GEVAGTFDV | En_Gen | 210 pM | 3/6 |
| 10 | GFTLNSYGIS | VIYADGRRTFYEDSVK | GEAIGTFDS | Ctrl | nd | 0/6 |
| 11 | GFDLNEYGIS | VIYADGMRTYYADSVK | GQVAGTFDI | En_Gen | 920 pM | 6/6 |
| 12 | GFQLNEYGIS | VIYSDGRRTFYGDSVK | GKAAGTFDL | GPLM_Gen | 3.9 nM | 6/6 |
| 13 | GFTLNSYGIS | VIYADGRRTFYGDSVK | GRAADTNDS | GP_HC | nd | 0/6 |
| 14 | GFTLNDYGIS | VIYSDGRRTFYGDAVK | GRAAGTFDI | GP_HC | nd | 0/6 |
| 15 | GFDLDEYGIS | VIYADGVRKAYADSVK | GNQAGTFDV | En_Gen | 560 pM | 6/6 |
| 16 | GFTINSYGIS | VIYSDGRRTFYGGSVK | GRAAGTFDS | Ctrl | 64 nM | 2/6 |
| 17 | GFDLNEYGIS | VIYADGRRTFYADSVK | GNEAGTFDV | En_Gen | 450 pM | 6/6 |
| 18 | GFELNDYGIS | VIYSDGRRTFYGDSVK | GRNAGTFDS | GP_Gen | 1.6 nM | 6/6 |
| 19 | GFTKNSYGIS | VIYSDGRRTFYGDSVK | GRAAGTFDS | Ctrl | nd | 0/6 |
| 20 | GFELNSYGIS | VIYSDGRRTFYGDSVK | GRHAGTFDT | GP_Gibbs | 50 nM | 4/6 |
| 21 | GFDIDEYGIS | VIYADGRRTFYADSVK | GTNAGTFDA | En_HC | nd | 0/6 |
| 22 | GFTLNSYGIS | VIYSDGRRTFYGDSVD | GRAAGTFDS | Ctrl | nd | 0/6 |
| 23 | GFELNEYGIS | VIYSDGRRTFYDDSVK | GRAAGTFDS | GP_Gen | 520 pM | 6/6 |
| 24 | GFNLNSYGIS | VIYSDGRRTFYGDSVK | GREAGTFDK | GP_Gibbs | 2.1 nM | 6/6 |
| 25 | AFDLNSYGIS | VIYSDGRRTFYGDSVK | GRAAGWFNS | Rand | nd | 0/6 |
| 26 | GFTLNQYGIS | VIYSDGRRTFYSDSVK | GEAAGTFDS | GPLM_HC | 640 pM | 6/6 |
| 27 | GFDLNEYGIS | VIYADGMRTAYADSVK | GQVAGTFDI | En_Gen | 410 pM | 6/6 |
| 28 | GFDLNEYGIS | VIYADGVRTAYADDVK | GETAGTFDL | En_Gen | 170 pM | 6/6 |
| 29 | GFDLNMYGIS | VIYSDGRRKFYGDSVK | GSSAGTFDS | Ctrl | 3.6 nM | 6/6 |
| 30 | GFDLNEYGIS | VIYADGVRTAYIDSVK | GETAGTFDV | En_Gen | 620 pM | 6/6 |
| 31 | GFKLDEFGIS | VIYADGLRMHYANSVK | GEMAGTFTT | En_Gibbs | 34 nM | 6/6 |
| 32 | GFDLNEYGIS | VIYADGRRTFYDDSVK | GKTAGTFDQ | En_HC | 460 pM | 6/6 |
| 33 | GFDLNEYGIS | VIYADGMRTAYTDSVK | GEQAGTFDV | En_Gen | 200 pM | 6/6 |

Further variants, results first:

| # | apparent Kd | replicates with signal | CDR-H1 | CDR-H2 | CDR-H3 | group |
|---|---|---|---|---|---|---|
| 34 | 13 nM | 6/6 | GFTLNDYGIS | VIYSDGRRTFYIDRVK | GNAAGTFDS | GP_HC |
| 35 | 550 pM | 6/6 | GFDLESYGIS | VIYADGSRTAYADSVK | GNVAGTFNQ | En_HC |
| 36 | 250 pM | 6/6 | GFDLNEYGIS | VIYADGRRTFYSDSVK | GEAAGTFDM | En_HC |
| 37 | 150 pM | 6/6 | GFDLDEYGIS | VIYADGMRTAYADSVK | GQVAGTFDV | En_Gen |
| 38 | 490 pM | 6/6 | GFDLEEYGIS | VIYADGMRTAYSDSVK | GNVAGTFDQ | En_Gen |
| 39 | 610 pM | 6/6 | GFDLDEYGIS | VIYADGKRTAYIDSVK | GNEAGTFDV | En_Gen |
| 40 | 1.3 nM | 6/6 | GFTLNSYGIS | VIYSDGRRTAYSDSVK | GQLAGTFDS | GP_HC |
| 41 | 11 nM | 6/6 | GFSLNEYGIS | VIYSDGRRTFYGDHVK | GRTAGTFDA | GP_Gibbs |
| 42 | 490 pM | 6/6 | GFDLNEYGIS | VIYADGMRTAYIDSVK | GNEAGTFDV | En_Gen |
| 43 | nd | 0/6 | GFTLGSYGSS | VIYSDGRRTFYSDSGK | GAAAGTFDS | Ctrl |
| 44 | nd | 0/6 | GFTLNSYGIS | VIYSDGRRTFYHDSVK | GRAVGTFDS | Ctrl |
| 45 | 300 pM | 6/6 | GFDLNEYGIS | VIYADGVRTAYANSVK | GQVAGTFDV | En_Gen |
| 46 | nd | 0/6 | GFTLNSYGIS | VIYSDGRRTFYGDSVK | GRAAGRYDS | Ctrl |
| 47 | 27 nM | 4/6 | GFELNSYGIS | VIYSDGRRTFYGDQVK | GKIAGTFDS | GP_Gen |
| 48 | nd | 0/6 | GFDLNSYGIS | VIYSDGRRTFYGDSVK | GRNAGTFES | GP_HC |
| 49 | nd | 0/6 | GFTLQSYGIS | VIYSDGFRTFYYDSVK | GRAAGTFDS | Ctrl |
| 50 | nd | 0/6 | GEALNSYGIS | VIYSDGRRTFYGDSVK | GRHAGTFDS | Ctrl |
| 51 | 2.5 nM | 6/6 | GFDLNSYGIS | VIYSDGRRTFYCDSVK | GREAGTFDS | GPLM_HC |
| 52 | nd | 0/6 | GFTHNSYGIS | VIYSDGRRTFYGHSVK | GRAMGTFDS | Ctrl |
| 53 | 1.1 nM | 6/6 | GFDLEEYGIS | VIYADGRRTFYADSVK | GENAGTFDV | En_HC |
| 54 | nd | 0/6 | GADINEYGIS | VIYADGRSTYYANSFK | GHNAGTFNS | En_Gibbs |
| 55 | 41 pM | 6/6 | GFDLNEYGIS | VIYADGMRTAYTDSVK | GNTAGTFDS | En_HC |
| 56 | nd | 0/6 | GFDLNSYGIS | VIYSDGRRTFYGDSVK | GRRAGTFES | GP_HC |
| 57 | 300 pM | 6/6 | GFDLDEYGIS | VIYADGVRTAYADSVK | GNNAGTFDM | En_Gen |
| 58 | nd | 0/6 | GFEIEEYGIS | VIYADGQRSSYVDNVK | GKVDTVVMY | En_Gibbs |
| 59 | 2.7 nM | 5/6 | GFDLNSYGIS | VIYSDGRRTFYADSVK | GQAAGTFDS | GPLM_Gen |
| 60 | nd | 0/6 | GFTLNSYGIS | VIYSDGRRTFYGDEVK | GMAAGTFDS | Ctrl |
| 61 | 310 pM | 6/6 | GFDLNEYGIS | VIYADGMRTAYSDSVK | GKNAGTFDL | En_Gen |
| 62 | nd | 0/6 | GRTLNEYGIS | VIYSDGRRTFYGDSVK | GRAAGTFDS | Ctrl |
| 63 | 4.0 nM | 6/6 | GFTLNDYGIS | VIYSDGRRTFYSDSVK | GRAAGFFDS | GP_HC |
| 64 | 12 nM | 4/6 | GFTLNSYGIS | VIYSDGVRTFYGDSVK | GQAAGTFDV | GP_Gibbs |
| 65 | 5.1 nM | 6/6 | GFTLNSYGIS | VIYSDGRRTFYGDSVK | GVLAGTFDT | GP_Gibbs |
| 66 | 1.9 nM | 6/6 | GFTLNSYGIS | VIYADGRRTFYGDSVK | GRYAGTFDS | Ctrl |

Extract of 7 entries:

| CDR-H1 | CDR-H2 | CDR-H3 | group | apparent Kd | replicates with signal |
|---|---|---|---|---|---|
| GFELNEYGIS | VIYSDGRRTFYDDSVK | GRAAGTFDS | GP_Gen | 520 pM | 6/6 |
| GFELNSYGIS | VIYSDGRRTFYGDQVK | GKIAGTFDS | GP_Gen | 27 nM | 4/6 |
| GFDLNEYGIS | VIYADGRRTFYDDSVK | GKTAGTFDQ | En_HC | 460 pM | 6/6 |
| GFNLNSYGIS | VIYSDGRRTFYGDSVK | GREAGTFDK | GP_Gibbs | 2.1 nM | 6/6 |
| GFTLNSYGIS | VIYSDGRRTFYHDSVK | GRAVGTFDS | Ctrl | nd | 0/6 |
| GFDLNEYGIS | VIYADGQRTAYADDVK | GEVAGTFDT | En_Gen | 410 pM | 6/6 |
| GFSLNEYGIS | VIYSDGRRTFYVDSVK | GKAAGTFDS | GPLM_Gen | 550 pM | 6/6 |